# CycPeptMPDB entries from one study

PAMPA is the parallel artificial membrane permeability assay, which has no cells and reads passive diffusion.
Permeability is given as log10 of P in cm/s; higher (less negative) is more permeable.

Listed for CC(C)C[C@@H]1C(=O)N2CCC[C@H]2C(=O)N(C)[C@H](CC(C)C)C(=O)N[C@@H](Cc2ccccc2)C(=O)N[C@H](C)C(=O)N[C@H](CC(C)C)C(=O)N1C: PAMPA -6.37 (log10 cm/s). The entry for CCCN1CC(=O)N(C)[C@H](CC(C)C)C(=O)N(C)[C@H](CC(C)C)C(=O)N2CCC[C@H]2C(=O)N[C@H](CC(C)C)C(=O)N[C@@H](Cc2ccccc2)C(=O)N2CCC[C@H]2C1=O lists PAMPA -5.59 (log10 cm/s). Listed for CCCN1CC(=O)N[C@@H](CC(C)C)C(=O)N[C@H](CC(C)C)C(=O)N2CCC[C@@H]2C(=O)N(C)[C@@H](CC(C)C)C(=O)N[C@@H](Cc2ccccc2)C(=O)N2CCC[C@@H]2C1=O: PAMPA -5.34 (log10 cm/s). Listed for CC(C)C[C@@H]1NC(=O)[C@H]2CCCN2C(=O)C[C@H](Cc2ccccc2)NC(=O)[C@@H](CC(C)C)NC(=O)[C@@H](C)NC(=O)[C@H]2CCCN2C(=O)[C@H](Cc2ccccc2)NC1=O: PAMPA -6.87 (log10 cm/s). The entry for CC(C)C[C@@H]1C(=O)N(C)[C@@H](CC(C)C)C(=O)N2CCC[C@@H]2C(=O)N(C)[C@@H](CC(C)C)C(=O)N[C@@H](Cc2ccccc2)C(=O)N2CCC[C@@H]2C(=O)N(C)[C@@H](C)C(=O)N1C lists PAMPA -4.96 (log10 cm/s). CC(C)C[C@@H]1NC(=O)[C@@H](C)NC(=O)[C@H]2CCCN2C(=O)[C@H](Cc2ccccc2)NC(=O)[C@@H](CC(C)C)N(C)C(=O)[C@@H]2CCCN2C(=O)CN(Cc2ccccc2)C1=O is reported with PAMPA -5.75 (log10 cm/s). Listed for CCCN1CC(=O)N(C)[C@H](CC(C)C)C(=O)N(C)[C@@H](CC(C)C)C(=O)N2CCC[C@H]2C(=O)N(C)[C@H](CC(C)C)C(=O)N[C@@H](Cc2ccccc2)C(=O)N2CCC[C@@H]2C1=O: PAMPA -4.94 (log10 cm/s).

CC(C)C[C@@H]1NC(=O)C[C@H](Cc2ccccc2)NC(=O)[C@@H]2CCCN2C(=O)[C@H](Cc2ccccc2)NC(=O)[C@@H](CC(C)C)N(C)C(=O)[C@H]2CCCN2C(=O)CN(Cc2ccccc2)C1=O has PAMPA -5.46 (log10 cm/s). CC(C)C[C@@H]1NC(=O)[C@@H]2CCCN2C(=O)[C@H](CC(C)C)NC(=O)[C@@H](CC(C)C)NC(=O)C[C@H](Cc2ccccc2)NC(=O)[C@H]2CCCN2C(=O)[C@H](Cc2ccccc2)NC1=O has PAMPA -6.23 (log10 cm/s). For CC(C)C[C@@H]1NC(=O)[C@H]2CCCN2C(=O)[C@H](CC(C)C)N(C)C(=O)[C@H](CC(C)C)NC(=O)C[C@H](Cc2ccccc2)NC(=O)[C@H](Cc2ccccc2)NC1=O the data give PAMPA -5.18 (log10 cm/s). For CC(C)C[C@@H]1C(=O)N[C@@H](Cc2ccccc2)C(=O)N[C@H](C)C(=O)N[C@H](CC(C)C)C(=O)N(Cc2ccccc2)CC(=O)N2CCC[C@H]2C(=O)N1C the data give PAMPA -6.34 (log10 cm/s). Listed for CCCN1CC(=O)N[C@H](CC(C)C)C(=O)N[C@H](CC(C)C)C(=O)N2CCC[C@@H]2C(=O)N[C@H](CC(C)C)C(=O)N[C@@H](Cc2ccccc2)C1=O: PAMPA -4.93 (log10 cm/s). Listed for CCCN1CC(=O)N[C@@H](CC(C)C)C(=O)N[C@@H](CC(C)C)C(=O)N2CCC[C@@H]2C(=O)N(Cc2ccccc2)CC(=O)N[C@@H](Cc2ccccc2)C(=O)N2CCC[C@H]2C1=O: PAMPA -5.52 (log10 cm/s). CC(C)C[C@H]1NC(=O)[C@@H]2CCCN2C(=O)CN(Cc2ccccc2)C(=O)[C@@H](CC(C)C)NC(=O)C[C@H](Cc2ccccc2)NC(=O)[C@@H]2CCCN2C(=O)[C@H](Cc2ccccc2)NC1=O is reported with PAMPA -6.10 (log10 cm/s).

Listed for CCCN1CC(=O)N[C@H](CC(C)C)C(=O)N[C@@H](CC(C)C)C(=O)N2CCC[C@@H]2C(=O)N[C@@H](CC(C)C)C(=O)N[C@@H](Cc2ccccc2)C1=O: PAMPA -6.00 (log10 cm/s).

2 of these entries, quoted again:

| structure (SMILES) | PAMPA (log10 cm/s) |
|---|---|
| CC(C)C[C@@H]1NC(=O)[C@H]2CCCN2C(=O)[C@H](CC(C)C)N(C)C(=O)[C@H](CC(C)C)NC(=O)C[C@H](Cc2ccccc2)NC(=O)[C@H](Cc2ccccc2)NC1=O | -5.18 |
| CCCN1CC(=O)N(C)[C@H](CC(C)C)C(=O)N(C)[C@H](CC(C)C)C(=O)N2CCC[C@H]2C(=O)N[C@H](CC(C)C)C(=O)N[C@@H](Cc2ccccc2)C(=O)N2CCC[C@H]2C1=O | -5.59 |

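Conditions beyond the assay type are not listed; see the original paper. Other peptides of the study may be missing here. Entries at the database's floor value (log10 P of -10) are not listed.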

Data: CycPeptMPDB; original report Townsend et al. 2020, doi:10.26434/chemrxiv.13335941.v1.